Target: T1, K^+ -depolarized guinea pig ileum or taenia (Cavia porcellus)
T1 construct: pieces of ileum, 2 cm in length, from male guinea pigs (200-400 g) were set up in isolated organ baths; from tissue; host or cells: strips of taenia from the caecum or pieces of ileum of male guinea pigs
Assay: Antagonism of Ca^++ -induced contractions of K^+ -depolarized guinea pig taenia or ileum
Assay type: cell-based
Conditions: Table 1, Ca^++ -induced contraction, Arunlakshana & Schild
Description: Strips of taenia from the caecum or pieces of ileum, 2 cm in length, from male guinea pigs (200-400 g) were set up in isolated organ baths in Ca^++ -free K^+ Tyrode's solution (mM NaCl 137, KCl 40, NaH2 PO4 0.4, NaHCO3 11.9, glucose 5.5) and gassed with 95% O2, 5% CO2 at 37° C. Contractions were measured with isotonic transducers with a 1 g load. Cumulative dose-response curves were obtained. Tissues were then washed and incubated with the compounds for 20-25 minutes and then Ca^++ concentration response curves re-established. […] Dose ratios were determined graphically at ED50 values from the Ca^++ dose-response curve and Schild plots were constructed to determine pA2 value using inverse regression line analysis. Alternatively, when only one concentration of an antagonist was used, pA2 values were calculated according to the method of J. M. Van Rossum, Arch. Int. Pharmacodyn Ther. 143: 299-330 (1963).

pA2: 7.38
SMILES: COc1ccc([C@@H]2Sc3ccccc3N(CCN(C)C)C(=O)[C@@H]2OC(C)=O)cc1 [Test Compound 17, (1)-cis-5-2-(dimethylamino)etnyl]2,3-dihydro-3-hydroxy-2-(p-methoxyphenyl)-1,5-benzothiazepin-4(5H)-one acetate, reference compound]
